Values of other authors as cited in patent US20210154335A1, “DYE AGGREGATES-CONTAINING NANOPARTICLES AND USES THEREOF” (BOARD OF REGENTS, THE UNIVERSITY OF TEXAS SYSTEM, priority 2019, published 2021).
Converted amounts (≈) assume the structure as drawn.

CC1(C)C(/C=C/C=C/C=C/C=C2\N(CCCCS(=O)(=O)O)c3ccc4ccccc4c3C2(C)C)=[N+](CCCCS(=O)(=O)[O-])c2ccc3ccccc3c21 [ICG, indocyanine green]
solubility limit in aqueous solutions: 1150 µg/mL (≈ 1530 µM)
